From PMC7749166, “Submolecular probing of the complement C5a receptor–ligand binding reveals a cooperative two-site binding mechanism” (Communications Biology, 2020)

Experiments:
C5aR^R175V/Y258V = target: T1, C5aR^R175V/Y258V (Homo sapiens, UniProt P21730, R175V/Y258V); experiment: FD-/FV-based AFM dynamic force spectroscopy vs double mutant; format: binding; conditions: R175V/Y258V vs WT
T1 construct: Flag (N); His8 (C); made in house; host or cells: HEK-293S cells (BacMam baculovirus)
T1 sequence (P21730 1-350 R175V/Y258V): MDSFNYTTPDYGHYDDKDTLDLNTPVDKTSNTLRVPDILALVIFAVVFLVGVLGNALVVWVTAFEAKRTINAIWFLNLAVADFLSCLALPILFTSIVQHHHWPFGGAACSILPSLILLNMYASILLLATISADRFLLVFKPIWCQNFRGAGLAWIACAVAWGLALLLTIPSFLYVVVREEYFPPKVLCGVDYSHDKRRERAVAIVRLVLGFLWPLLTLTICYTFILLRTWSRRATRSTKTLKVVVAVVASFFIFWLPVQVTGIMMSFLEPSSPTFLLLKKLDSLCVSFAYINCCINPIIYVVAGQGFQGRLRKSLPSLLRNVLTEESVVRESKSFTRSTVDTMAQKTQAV
Description: (§1) The reconstituted C5aR sample solution (either wt-C5aR or mutants) was 20-fold diluted in fusion buffer solution (20 mM HEPES, 300 mM NaCl, and 25 mM MgCl2) and adsorbed on freshly cleaved mica for 15 min. After rinsing with imaging buffer (20 mM HEPES and 300 mM NaCl) the sample was transferred to the AFM.
To functionalize AFM cantilevers with the PMX53 antagonist (Ace-Phe-[{Orn}-Pro-{D-Cha}-Trp-Arg]), aminofunctionalized cantilevers were immersed for 2 h in a solution prepared by mixing 1 mg of NHS-PEG27-maleimide[39] (JKU, Linz, Austria) dissolved in 0.5 ml of chloroform with 30 μl of triethylamine, then washed with chloroform and dried with N2. The cystein bearing peptide Cys-Gly3-Phe-[{Orn}Pro-{D-Cha}-Trp-Arg] […]
In FD-based AFM measurements, the AFM cantilever is oscillated in a sinusoidal manner well below its resonance frequency, while the sample surface is contoured pixel-by-pixel. For each approach–retraction cycle of the oscillating cantilever, a force–distance curve is recorded. […] Adhesion maps were recorded using a scan rate of 0.2 Hz and 256 × 256 pixels. […]
Raw images were analyzed using the Gwyddion 2.5 free software. Force–distance curves were analyzed using the Nanoscope Analysis 1.80 Software (Bruker). Individual force–distance curves corresponding to specific adhesion events were extracted and further analyzed using the OriginLab software. […]

C5aR^D282A = target: T2, C5aR^D282A (Homo sapiens, UniProt P21730, D282A); experiment: FD-/FV-based AFM dynamic force spectroscopy vs D282A mutant; format: binding; conditions: D282A vs WT
T2 construct: Flag (N); His8 (C); made in house; host or cells: HEK-293S cells (BacMam baculovirus)
T2 sequence (P21730 1-350 D282A): T1 sequence (P21730 1-350 R175V/Y258V) with V175R, V258Y, D282A
Description: as §1
Rectangular Si3N4 AFM cantilevers with silicon tips (BioLever mini, Bruker) were first cleaned with chloroform for 10 min, rinsed with ethanol, N2 dried, and then cleaned for 15 min in an ultraviolet radiation and ozone cleaner (UV-O, Jetlight, CA, USA). For the aminofunctionalization, the cantilevers were immersed in an ethanolamine solution (3.3 g ethanolamine in 6.6 ml DMSO) overnight and then rinsed in DMSO (3 × 1 min) and ethanol (3 × 1 min), followed by N2 drying. This was followed by the N-hydroxysuccinimide (NHS)-PEG27-acetal linker attachment. A 1 mg portion of the NHS-PEG27-acetal linker (JKU, Linz, Austria) was diluted in 0.5 ml chloroform with 30 µl triethylamine and the cantilevers were immersed in this solution for 2 h. […]
In FD-based AFM measurements, the AFM cantilever is oscillated in a sinusoidal manner well below its resonance frequency, while the sample surface is contoured pixel-by-pixel. For each approach–retraction cycle of the oscillating cantilever, a force–distance curve is recorded. […]

Substance: Ace-Phe-[{Orn}-Pro-{D-Cha}-Trp-Arg] (sidechain bridge or staple) [PMX53, cyclic antagonist peptide that mimics the C-terminal structure of the endogenous C5a ligand]
- decrease in ∆Gbu vs wild type (C5aR^R175V/Y258V): ~ 3%
- reduction in residence time vs wild type (C5aR^R175V/Y258V): ~ 40%
- reduction of the free energy vs wild type (C5aR^D282A): ~ 43%

Where a chain is given by its changes, count along the chain named.
